In the experiment the target is human muscarinic M3 receptors (Homo sapiens, UniProt P20309). Description: biochemical.

Protein sequences, listed by entry. Tags and fused reporters are not part of them.
UniProt P20309, whole entry: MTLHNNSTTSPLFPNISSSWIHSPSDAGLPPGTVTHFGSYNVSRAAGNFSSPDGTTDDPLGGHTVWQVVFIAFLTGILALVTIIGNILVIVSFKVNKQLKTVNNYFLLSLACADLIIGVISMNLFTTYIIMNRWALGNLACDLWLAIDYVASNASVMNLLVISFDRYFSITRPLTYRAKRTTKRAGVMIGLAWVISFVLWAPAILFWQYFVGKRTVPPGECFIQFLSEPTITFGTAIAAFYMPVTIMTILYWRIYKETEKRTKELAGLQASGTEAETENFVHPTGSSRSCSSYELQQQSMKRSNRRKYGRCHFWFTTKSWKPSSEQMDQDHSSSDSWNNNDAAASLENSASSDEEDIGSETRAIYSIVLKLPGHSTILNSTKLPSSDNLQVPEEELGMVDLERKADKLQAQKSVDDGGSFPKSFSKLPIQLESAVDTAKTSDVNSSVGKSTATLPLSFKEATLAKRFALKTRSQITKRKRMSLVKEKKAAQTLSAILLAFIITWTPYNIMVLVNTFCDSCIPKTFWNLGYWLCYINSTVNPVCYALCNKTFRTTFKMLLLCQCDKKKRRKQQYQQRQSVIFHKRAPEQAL

pIC50: −log10 of the molar value.

Take `CC(C)[N+]1(C)[C@@H]2CC[C@H]1C[C@@H](OC(=O)C(CO)c1ccccc1)C2` (stereo partly shown) [Ipratropium, reference compound]: the pIC50 (in general, the IC50 on a negative log10 scale, so that one unit is a factor of ten) was 8.52.

These data come from patent US7312231B2, “Quinuclidine carbamate derivatives and their use as M3 antagonists” (priority 2000, dated 2007).
